Molecular target: human β2-adrenergic receptor (hβAR) (Homo sapiens, UniProt P07550)
Description: After 36 hours, cells were harvested and spheroplasts were prepared as described. […] Briefly, the spheroplasts were resuspended in 50 mM Tris-HCl pH 7.4, 5 mM EDTA and were lysed by vortex mixing with glass beads for three one-min periods at 4° C.
FIG. 2 illustrates hβAR ligand binding to membranes from pYβAR2-transformed yeast cells. […] Specific binding was defined as the amount of total binding (circles) minus nonspecific binding measured in the presence of 10 μM (−) alprenolol (squares).

(−) norepinephrine was tested, and the Ki was 6 ± 1.38 µM.

From patent US7413876B2 (priority 1990, dated 2008)
